Results taken from ChEMBL document CHEMBL4342403, “New evolutions in the BACE1 inhibitor field from 2014 to 2018” (Bioorg Med Chem Lett, 2019).

By UniProt entry, the sequences of proteins in these tests, tags left out. Where a name states a change or a piece, a line headed by the entry shows the natural chain unless it says otherwise.
UniProt P56817: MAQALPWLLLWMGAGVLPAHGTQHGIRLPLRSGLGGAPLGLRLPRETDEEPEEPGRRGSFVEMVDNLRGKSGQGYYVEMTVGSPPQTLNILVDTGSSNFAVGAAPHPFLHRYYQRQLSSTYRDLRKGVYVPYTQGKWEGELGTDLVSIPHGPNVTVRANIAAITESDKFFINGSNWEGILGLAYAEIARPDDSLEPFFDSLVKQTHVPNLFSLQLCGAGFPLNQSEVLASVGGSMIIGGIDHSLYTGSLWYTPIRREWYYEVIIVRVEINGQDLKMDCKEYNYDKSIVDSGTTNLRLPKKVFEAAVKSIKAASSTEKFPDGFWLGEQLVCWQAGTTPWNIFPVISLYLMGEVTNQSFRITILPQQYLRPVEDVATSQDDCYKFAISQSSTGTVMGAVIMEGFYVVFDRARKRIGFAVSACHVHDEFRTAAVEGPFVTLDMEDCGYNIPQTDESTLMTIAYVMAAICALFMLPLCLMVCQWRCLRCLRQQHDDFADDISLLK

Target: Beta-secretase 1 (Homo sapiens, UniProt P56817)
Assay: Inhibition of BACE1 in human H4 cells transfected with APP695 assessed as […] incubated for 18 hrs by ELISA
Format: cell-based

C[C@H]1C[C@H]2CSC(N)=N[C@@]2(c2nc(NC(=O)c3ccc(OC(F)F)cn3)cs2)CO1
IC50: 5 nM
